# According to PubChem BioAssay AID2100 (National Center for Advancing Translational Sciences (NCATS), 2009):
# This is a selection; strong and weak results do not stand in their true shares. Results filed as inconclusive are left out. Calls of active or inactive are those of the source. Calls follow the shape of the dose curve; as a rule, active = well fitted inhibition curve with a large enough effect; inconclusive = small, poorly fitted or top-dose-only effect, or another doubt; inactive = no such curve, though single readings can be large or run the other way.
# Biological target: Lysosomal alpha-glucosidase (Homo sapiens) (UniProt P10253)
# Experiment: qHTS Assay for Inhibitors and Activators of Human alpha-Glucosidase Cleavage of Glycogen;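 also: 0% = full enzyme reaction and -100% = no-enzyme basal signal; the screen sought inhibitors and activators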
# Details: recombinant GAA, glycogen substrate, Amplex Red glucose oxidase fluorescence; at 76.4 µM (top of the series) unless noted
# Source text: NIH Chemical Genomics Center [NCGC] NIH Molecular Libraries Probe Production Centers Network [MLPCN] MLPCN Grant: R03 MH084841-01 Assay Submitter (PI): Wei Zheng NCGC Assay Overview: Alpha-glucosidase is responsible for the hydrolysis of terminal, non-reducing 1,4-linked alpha-D-glucose residues, which releases alpha-D-glucose. It is a lysosomal hydrolase that is required for the degradation of a small percentage (1-3%) of cellular glycogen in humans. Deficiency of this enzyme results in glycogen-storage disease type II (GSDII), also referred to as Pompe disease, an autosomal recessive disorder. Structurally normal glycogen is accumulated in the lysosomes and cytoplasm in affected patients, primarily in muscle tissues. Excessive glycogen storage within lysosomes may interrupt normal functioning of other organelles and leads to cellular injury. In turn, this leads to enlargement and dysfunction of the entire organ involved (eg: cardiomyopathy and muscle weakness). It has been reported that the improper folding and trafficking of alpha-glucosidase resulting from genetic mutations may account for a significant number of Pompe patients. […] We optimized this alpha-glucosidase assay in 1536-well plate format for identification of novel small molecule inhibitors or activators with structures other than the sugar analogs in order to develop new pharmacological chaperones. Previous assays of alpha-Glucosidase have utilized a non-natural fluorescent substrate to probe enzyme activity. The present assay measures enzyme activity on glycogen using a coupled-assay system to glucose oxidase.
# NCGC Assay Protocol Summary: This is an enzyme assay using glycogen from bovine liver (Sigma catalog #: G0885) as the substrate and recombinant human alpha-glucosidase as the enzyme preparation. Upon hydrolysis of the substrate, the glucose product can be detected using the Amplex Red Glucose Oxidase Assay Kit (Invitrogen catalog #: A22189). The product of this reaction can be read with a fluorescence plate reader with an excitation at 573 nm and an emission at 610 nm. Data were normalized to the controls for basal activity (without enzyme) and 100% activity (with enzyme). The AC50 values were determined from concentration-response data modeled with the standard Hill equation. Assay buffer for enzyme reaction: 50 mM citric acid (titrated with potassium phosphate to pH 5.0), 0.01% Tween-20 (pH 5.0 is an optimal condition for this enzyme assay) Assay buffer for Amplex Red reaction: Tris-HCl, pH 7.5 1536-well assay protocol for the alpha-glucosidase assay: (1) Add 2 ul/well alpha-glucosidase enzyme solution (4 nM final) (2) Add 23 nL compounds in DMSO solution. The final titration was 0.7 nM to 77 uM. (3) Add 1 ul of glycogen substrate solution (30 ug) (4) Incubate at 37 C for 40 min (5) Add 2 ul tris-HCl buffer with Amplex Red reagents (6) Incubate 45 min at room temperature. (7) Detect the assay plate in a ViewLux plate reader (PerkinElmer) with Ex=573 nm and Em=610nm. Keywords: Alpha-glucosidase, Pompe Disease, pharmacological chaperone, chaperone therapy, high throughput screening, alpha-glucosidase inhibitor, MLSMR, MLSCN, NIH Roadmap, qHTS and NCGC
row,SMILES,"activity change, negative = inhibition"
1,Nc1ccccc1[As](=O)(O)c1ccccc1,inactive: -3.72%
2,O=C(O)COc1ccc([As](=O)(O)O)cc1[N+](=O)[O-],inactive: 2.48%
3,CCOP1(=S)c2c(C)nn(CCC#N)c2N=C(c2ccccc2F)N1C (stereo not given),inactive: 7.76%
4,O=P(Nc1nccs1)(c1ccccc1)c1nc2ccccc2s1 (stereo not given),inactive: 5.14%
5,O=P(Nc1nccs1)(Oc1ccccc1)Oc1ccccc1,inactive: 10.7%
6,CS(=O)(=O)c1cc([N+](=O)[O-])c2no[n+]([O-])c2c1,inactive: 2.47%
7,CCOP1(=S)c2c(C)nn(CCC#N)c2N=C(c2ccc(F)cc2)N1C (stereo not given),inactive: -0.754%
8,CN(C(=O)Cc1ccccc1)[C@@H]1CC[C@]2(CCCO2)C[C@H]1N1CCCC1,inactive: 7.51%
9,O=[N+]([O-])c1ccc2c(c1)nnn2O,inactive: 8.34%
10,NC(=O)Nc1ccc([As](=O)(O)O)cc1,inactive: 9.8%
11,O=[As](O)(c1cccc(O)c1)c1cccc(O)c1,inactive: 2.11%
12,Cc1cccc(OCC(=O)OC2CN3CCC2CC3)c1 (stereo not given),inactive: -1.35%
13,O=C(OC1CN2CCC1CC2)c1ccc(Cl)cc1 (stereo not given),inactive: 3.59%
14,COc1cc(C(=O)NCC2(N3CCOCC3)CCCCC2)cc(Cl)c1OC(C)C,inactive: 28.1%
15,O=[As](O)(O)c1cccnc1,inactive: 0.424%
16,CS(=O)(=O)c1ccc(Cl)c(NC(=O)COC(=O)C(O)(c2ccccc2)c2ccccc2)c1,inactive: -4.24% [at 76.3 µM]
17,COc1cc(C2NCCC3(OCCO3)C2(C)C)cc(OC)c1OC (stereo not given),inactive: -0.517%
18,CCOP(=O)(Nc1cccc2ccccc12)OCC,inactive: 1.29%
19,Cc1ccc(NCCc2c([N+](=O)[O-])cc([N+](=O)[O-])cc2[N+](=O)[O-])cc1,inactive: -10.8%
20,Nc1cccc2c([As](=O)(O)O)cccc12,inactive: -8%
21,CCCOP(=S)(Nc1nc(N)cc(=O)[nH]1)OCCC,inactive: -1.29%
22,Clc1n[nH]nc1-c1nn[nH][15n]1,inactive: 0.0318%
23,CC(C)(C)C(=O)NC(Sc1ncccn1)C(Cl)(Cl)Cl (stereo not given),inactive: 0.814%
24,O=P1(Nc2ccccn2)COc2ccccc2OC1,inactive: -0.0921%
25,CCC1=CC2Cc3nc4ccc(Cl)cc4c(N)c3C(C1)C2 (stereo not given),inactive: 13.9% [at 76.3 µM]

row,SMILES,"activity change, negative = inhibition"
1,CCOP(=O)(NC(=NC(C)c1ccccc1)NC(C)c1ccccc1)OCC (stereo not given),inactive: 2.49%
2,CCOP(=O)(Nc1ccc(C)cn1)OCC,inactive: -7.16%
3,CC(C)/C=N\N=C(\N)N[N+](=O)[O-],inactive: 1.09%
4,CN(C(=O)Cc1ccc(Cl)c(Cl)c1)[C@@H]1CCCC[C@H]1N1CCCC1,inactive: -0.741%
5,O=[As](O)(c1ccccc1Br)c1ccccc1Br,inactive: 2.28%
6,CN(C)C1(CNC(=O)c2ccc(S(C)(=O)=O)cc2)CCCCC1,inactive: -6.5%
7,O=C(/C=C/c1ccccc1)OC1CN2CCC1CC2 (stereo not given),inactive: 7.32%
8,Cc1nn(-c2ccccc2)c2c1P(=O)(N1CCOCC1)N(C)C(c1ccccc1)=N2 (stereo not given),inactive: 2.15%
9,CC1CCC(C(C)C)C(OP(=O)(Nc2ccccn2)c2ccccc2)C1 (stereo not given),inactive: -1.18%
10,Cc1ccc(C(=O)OC2CN3CCC2CC3)cc1 (stereo not given),inactive: -3.44%
11,Nc1cccc([As](=O)(O)c2ccccc2)c1,inactive: -0.0484%
12,O=P1(Nc2ccc(Br)cn2)COc2ccccc2OC1,inactive: -6.64%
13,Cc1ccc(OCC(=O)OC2CN3CCC2CC3)cc1 (stereo not given),inactive: -0.655%
14,O=[As](O)(c1cccs1)c1cccs1,inactive: -4.19%
15,O=P1(Nc2ncccn2)COc2ccccc2OC1,inactive: 7.63%
16,CCCCOc1ccc(C(=O)NCC2(N3CCCCC3)CCCCC2)cc1OC,inactive: -7.09% [at 76.3 µM]
17,Cc1cc(SC(NC(=O)c2ccccc2)C(Cl)(Cl)Cl)nc(C(C)C)n1 (stereo not given),inactive: -3.6%
18,CCOC(=O)Nc1ccc([As](=O)(O)O)c(O)c1,inactive: 5.05%
19,O=P(Nc1ccccn1)(c1cccc2ccccc12)c1cccc2ccccc12,inactive: -7.54%
20,O=[N+]([O-])c1ccc(Nc2ccc(Oc3ccc([N+](=O)[O-])cc3[N+](=O)[O-])cc2)c([N+](=O)[O-])c1,inactive: 0.349%
21,CCOC(=O)Nc1cccc([As](=O)(O)O)c1,inactive: 2.8%
22,O=C(COc1ccccc1)OC1CN2CCC1CC2 (stereo not given),inactive: -5.6%
23,O=C(Nc1ccncc1[N+](=O)[O-])c1ccc([N+](=O)[O-])cc1[N+](=O)[O-],inactive: 3.75%
24,COP1(=S)c2c(C)nn(CCC#N)c2N=C(c2ccc(F)cc2)N1C (stereo not given),inactive: 5.47%
25,CCC(C)N(CC(C)C)C(=S)SC(NC(C)=O)C(Cl)(Cl)Cl (stereo not given),inactive: 0.334%
